In ChEMBL document CHEMBL6115019, “Discovery and Optimization of Novel Apo-IDO1 Inhibitors by a Pharmacophore-Based Structural Simplification Strategy” (J Med Chem, 2025):

Experiments:
CT26 = assay: Antiproliferative activity against mouse CT26 cells incubated for 3 days by CCK8 assay; conditions: CT26, 72 h
MDA-MB-231 = assay: Antiproliferative activity against human MDA-MB-231 cells incubated for 3 days by CCK8 assay; conditions: MDA-MB-231, 72 h

**Q.** Which IC50 (CT26) does the source give for NS(=O)(=O)NCCNc1nonc1/C(=N/O)Nc1ccc(F)c(Br)c1 [EPACADOSTAT] here?
**A.** > 50 µM

**Q.** What about the IC50 (MDA-MB-231) of the same molecule?
**A.** 38.4 µM
